The source of these data is US20190195880A1, “METHODS AND KITS FOR PREDICTING THE SENSITIVITY OF A SUBJECT SUFFERING OF RENAL CANCER TO CANCER TREATMENT” (CENTRE NATIONAL DE LA RECHERCHE SCIENTIFIQUE (CNRS), priority 2016, published 2019).

The structures appear in SMILES notation.

The test system of the experiment is metastatic ccRCC. Put plainly: Combination of SUVEGIL and TORAVA trials (sunitinib): survival versus plasmatic CXCL7. The class given is in vivo, human. The settings on record: both cohorts combined, CXCL7 plasma levels above 250 ng/ml; p=0.002. The protocol:
All patients gave written informed consent. The SUVEGIL trial (NCT00943839) was a multicenter prospective single-arm study. […] Patient characteristics and results have been previously described (Negrier et al., 2011).
The CXCL5 and CXCL7 cut-off points (respectively 0.1 and 250 ng/ml) for PFS and OS were determined using smoothing spline curves analysis (R software, version 3.2.2). […] The predictive cut-off points determined in the SUVEGIL cohort were used for the TORAVA cohort.

As to `CCN(CC)CCNC(=O)c1c(C)[nH]c(/C=C2\C(=O)Nc3ccc(F)cc32)c1C` [sunitinib], the “median PFS” value is reported as 27.7 months.
